Test system: human DHFR versus Toxoplasma gondii DHFR-TS
Test: in vitro

Question: For Nc1ncc(N2CCN(c3cccc(C4CC4)c3)CC2)c(N)n1, which selectivity ratio is on record?
Answer: Its selectivity ratio is 56.

Question: Which selectivity ratio does the source give for Nc1ncc(N2CCN(c3ccc(Cl)cc3)CC2)c(N)n1 here?
Answer: The selectivity ratio was 24.

Question: With Nc1ncc(N2CCN(c3cccc(C(F)(F)F)c3)CC2)c(N)n1 as the compound, how does the selectivity ratio read?
Answer: The selectivity ratio was 8.7.

Question: With Cc1cccc(N2CCN(c3cnc(N)nc3N)CC2)c1 as the compound, how does the selectivity ratio read?
Answer: The selectivity ratio was 79.
